Chains of the proteins cited; added tags and fusions are not shown. Residues count along the entry.
UniProt O60678, 2-531: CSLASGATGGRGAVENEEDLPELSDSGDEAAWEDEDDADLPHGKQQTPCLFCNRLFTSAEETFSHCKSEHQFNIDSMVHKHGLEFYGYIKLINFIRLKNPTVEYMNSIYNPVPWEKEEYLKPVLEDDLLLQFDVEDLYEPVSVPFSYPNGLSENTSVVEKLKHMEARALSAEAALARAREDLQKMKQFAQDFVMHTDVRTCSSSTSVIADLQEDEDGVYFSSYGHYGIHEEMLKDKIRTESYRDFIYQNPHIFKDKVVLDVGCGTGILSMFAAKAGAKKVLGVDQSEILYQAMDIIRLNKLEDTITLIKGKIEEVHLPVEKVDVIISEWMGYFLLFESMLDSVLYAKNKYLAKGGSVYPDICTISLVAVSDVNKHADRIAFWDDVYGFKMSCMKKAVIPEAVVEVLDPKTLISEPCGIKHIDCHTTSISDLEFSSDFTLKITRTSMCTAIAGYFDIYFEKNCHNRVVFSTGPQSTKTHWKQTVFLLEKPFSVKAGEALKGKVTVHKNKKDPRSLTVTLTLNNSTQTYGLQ
UniProt Q9NR22, 61-394: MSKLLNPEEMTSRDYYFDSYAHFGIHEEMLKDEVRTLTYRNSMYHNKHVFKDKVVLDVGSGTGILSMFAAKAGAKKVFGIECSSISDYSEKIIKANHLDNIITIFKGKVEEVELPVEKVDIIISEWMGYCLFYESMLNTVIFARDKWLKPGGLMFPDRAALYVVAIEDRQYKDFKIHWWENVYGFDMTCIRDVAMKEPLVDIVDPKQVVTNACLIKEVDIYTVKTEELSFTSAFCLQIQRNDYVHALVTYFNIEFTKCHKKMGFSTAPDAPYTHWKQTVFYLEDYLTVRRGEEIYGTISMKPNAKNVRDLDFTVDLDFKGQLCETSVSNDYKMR
UniProt Q96LA8, 2-375: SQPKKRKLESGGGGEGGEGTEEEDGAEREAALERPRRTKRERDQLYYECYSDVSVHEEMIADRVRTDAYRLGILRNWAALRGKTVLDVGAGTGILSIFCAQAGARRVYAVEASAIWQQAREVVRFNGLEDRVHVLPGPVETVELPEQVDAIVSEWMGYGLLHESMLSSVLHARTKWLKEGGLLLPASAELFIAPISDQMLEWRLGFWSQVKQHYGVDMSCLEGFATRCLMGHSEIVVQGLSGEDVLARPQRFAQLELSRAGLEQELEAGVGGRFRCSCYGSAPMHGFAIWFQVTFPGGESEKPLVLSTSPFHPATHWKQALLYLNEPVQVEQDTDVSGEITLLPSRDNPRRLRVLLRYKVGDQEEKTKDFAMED
UniProt Q99873, 2-371: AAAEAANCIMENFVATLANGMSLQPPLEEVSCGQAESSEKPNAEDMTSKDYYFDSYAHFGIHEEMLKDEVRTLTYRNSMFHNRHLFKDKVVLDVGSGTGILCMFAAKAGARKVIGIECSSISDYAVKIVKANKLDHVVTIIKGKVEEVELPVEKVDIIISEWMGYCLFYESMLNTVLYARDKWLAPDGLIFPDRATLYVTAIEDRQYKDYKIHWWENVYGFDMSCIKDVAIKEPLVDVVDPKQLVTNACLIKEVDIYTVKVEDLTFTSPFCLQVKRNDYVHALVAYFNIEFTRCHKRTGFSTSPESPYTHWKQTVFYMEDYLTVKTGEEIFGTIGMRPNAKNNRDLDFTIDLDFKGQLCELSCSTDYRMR
UniProt O14744, 2-637: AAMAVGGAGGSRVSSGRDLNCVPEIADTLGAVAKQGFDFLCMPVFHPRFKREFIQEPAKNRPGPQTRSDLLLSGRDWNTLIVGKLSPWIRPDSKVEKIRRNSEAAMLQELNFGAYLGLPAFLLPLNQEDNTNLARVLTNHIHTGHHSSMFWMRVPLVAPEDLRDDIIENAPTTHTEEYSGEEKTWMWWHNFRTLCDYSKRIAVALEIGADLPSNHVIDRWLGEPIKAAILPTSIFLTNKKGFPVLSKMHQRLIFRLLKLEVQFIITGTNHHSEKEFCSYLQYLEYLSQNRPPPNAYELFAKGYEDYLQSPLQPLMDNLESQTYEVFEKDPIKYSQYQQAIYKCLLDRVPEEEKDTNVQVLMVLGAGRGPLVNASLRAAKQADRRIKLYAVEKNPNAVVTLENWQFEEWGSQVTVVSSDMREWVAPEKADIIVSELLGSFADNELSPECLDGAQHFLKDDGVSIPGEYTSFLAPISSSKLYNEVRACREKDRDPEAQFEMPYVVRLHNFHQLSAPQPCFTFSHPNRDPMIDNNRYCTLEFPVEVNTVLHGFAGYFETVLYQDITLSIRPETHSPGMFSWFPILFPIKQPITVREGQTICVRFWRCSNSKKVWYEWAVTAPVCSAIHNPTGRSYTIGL

In paper PMC10578352, “Identification of a Protein Arginine Methyltransferase 7 (PRMT7)/Protein Arginine Methyltransferase 9 (PRMT9) Inhibitor” (Journal of Medicinal Chemistry, 2023):

Columns and labels:
Format in all cases: biochemical
Details in all cases: Figure 2; from IC50 values of ref 31
[1] = biological target: T1, PRMT3 (Homo sapiens, UniProt O60678); experiment: HotSpot radioisotope-based filter assay, PRMT3
T1 construct: PRMT3 (residues 2–531, C-terminus); with an N-terminal His-tag; His (N); purchased Reaction Biology Corporation
Procedure: (§1) Then, ^3H-SAM (final concentration of 1 μM) was delivered into the reaction mixture to initiate the reaction. After incubation for 60 min at 30 °C, the reaction mixture was delivered to filter-paper for detection (as assessed by scintillation). Data were analyzed using Excel and GraphPad Prism 6.0 software (GraphPad Software Inc., San Diego, CA) for IC50 curve fits using sigmoidal dose vs response - variable slope (four parameters) equations.

[2] = biological target: T2, PRMT8 (Homo sapiens, UniProt Q9NR22); experiment: HotSpot radioisotope-based filter assay, PRMT8
T2 construct: (residues 61–394, C-terminus); with C- and N-terminal His-tags; His (N); His (C); purchased Reaction Biology Corporation
Procedure: as §1

[3] = biological target: T3, PRMT6 (Homo sapiens, UniProt Q96LA8); experiment: HotSpot radioisotope-based filter assay, PRMT6
T3 construct: PRMT6 (residues 2–375, C-terminus); with an N-terminal GST-tag; GST (N); purchased Reaction Biology Corporation
Procedure: as §1

[4] = biological target: T4, PRMT1 (Homo sapiens, UniProt Q99873); experiment: HotSpot radioisotope-based filter assay, PRMT1
T4 construct: PRMT1 (residues 2–371, C-terminus); with an N-terminal GST-tag; GST (N); purchased Reaction Biology Corporation
Procedure: as §1

[5] = biological target: T5, PRMT5/MEP50 complex (Homo sapiens, UniProt O14744); experiment: HotSpot radioisotope-based filter assay, PRMT5
T5 construct: residues PRMT5 2–637, C-terminus, and MEP50 2–342, C-terminus; FLAG (N); purchased Reaction Biology Corporation
Procedure: as §1

[6] = biological target: T6, PRMT4 (Homo sapiens, UniProt Q86X55); experiment: HotSpot radioisotope-based filter assay, PRMT4
T6 construct: PRMT4 (residues 2–608, C-terminus); with an N-terminal GST-tag; GST (N); purchased Reaction Biology Corporation
T6 sequence (Q86X55 2-608): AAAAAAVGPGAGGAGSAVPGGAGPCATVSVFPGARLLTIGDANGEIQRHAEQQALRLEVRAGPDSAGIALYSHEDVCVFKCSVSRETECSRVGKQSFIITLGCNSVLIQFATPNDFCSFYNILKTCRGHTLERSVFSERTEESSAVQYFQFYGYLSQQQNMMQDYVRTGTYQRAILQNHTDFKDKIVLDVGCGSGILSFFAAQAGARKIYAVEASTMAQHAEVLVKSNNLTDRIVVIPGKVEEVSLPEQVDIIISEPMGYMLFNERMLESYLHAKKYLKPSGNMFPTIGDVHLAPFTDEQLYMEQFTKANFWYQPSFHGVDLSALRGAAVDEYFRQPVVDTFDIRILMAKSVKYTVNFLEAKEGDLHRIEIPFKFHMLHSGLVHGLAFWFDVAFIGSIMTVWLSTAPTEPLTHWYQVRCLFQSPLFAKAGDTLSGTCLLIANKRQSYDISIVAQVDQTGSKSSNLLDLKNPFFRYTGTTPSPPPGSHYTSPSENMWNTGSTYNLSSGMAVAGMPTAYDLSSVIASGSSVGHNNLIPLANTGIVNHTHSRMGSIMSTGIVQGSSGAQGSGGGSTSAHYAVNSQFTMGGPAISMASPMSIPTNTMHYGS
Procedure: as §1

COC(=O)c1cc(O)c2cc(NC(=O)NCCCCCCNC(=N)NC[C@H]3O[C@@H](n4cnc5c(N)ncnc54)[C@H](O)[C@@H]3O)ccc2c1 [1d]
selectivity index for PRMT7 over PRMT3 [1]: 30 fold | selectivity index for PRMT7 over PRMT8 [2]: 9 fold | selectivity index for PRMT7 over PRMT6 [3]: 115 fold | selectivity index for PRMT7 over PRMT1 [4]: 2 fold | selectivity index for PRMT7 over PRMT5 [5]: 6 fold | selectivity index for PRMT7 over PRMT4 [6]: 0.17 fold
